Laboratory results: US20080095824A1, “Delivery of drugs from sustained release devices implanted in myocardial tissue or in the pericardial space” (Durect Corporation, priority 2001, published 2008)

How the values were obtained:
[1] = Pericardial fluid and plasma concentrations after 7 days of pericardial or systemic infusion; conditions: 7 days intrapericardial infusion; calculated for each animal
[2] = In vitro release from SAIB depot compositions; assay type: physicochemical; conditions: SAIB 65% wt

Substance	Peric/plasma ratio [1]	% Release, 24 h ([2]; DMSO 30%, DL-PLG 5%) [%]	% Release, 168 h ([2]; DMSO 30%, DL-PLG 5%) [%]	% Release, 24 h ([2]; DMSO 35%, no additive) [%]	% Release, 168 h ([2]; DMSO 35%, no additive) [%]	period of VEGF release (extruded hollow tube made of caprolactone) [days]	release of VEGF over a 25-day period (hollow rod of 65:35 poly(dl-lactide-co-glycolide) with 5% PEG 1000)
Cortisol carbonic acid	420 ± 81 (3)						
VEGF		5	40	15	70	30	about 50%
